This note sets out measurements from US20040003424A1, “Transgenic cardiomyocytes with controlled proliferation and differentiation” (Board of Regents, The University of Texas System, priority 2002, published 2004).

The subject of the test is NkL-TAg cells. The experiment in a line: Induction of differentiation of NkL-TAg cells, sarcomeric α-actinin immunocytochemistry. It counts as cell-based, mouse. The settings on record: NkL-TAg cells after removal of TAg, in differentiation medium (5% horse serum, insulin, transferrin, selenium). The protocol: Cell Culture. Cells were isolated from sub-endocardial tumor-like structures in the hearts of transgenic mice as previously described with some modifications (Paradis et al, 1996). Briefly, dissected tissues were minced and dissociated using an enzyme mix containing 0.2% […] (Worthington) and 0.6 mg/ml of pancreatin (Sigma). Cardiac cells derived from Nk-TAg and NkL-TAg mice were maintained in DMEM/F12 media supplemented with 100 IU/ml penicillin, 100 μg/ml streptomycin, 2 mM Lglutamine, and 10% fetal bovine serum (FBS) on plates coated with […] fibronectin and 0.1% 2 gelatin. Cloning cylinders were used to harvest cell clones. Cell growth curves were generated by plating 1.5×10^5 or 2×10^5 cells (as indicated) in growth medium onto 100 mm plates and counting total cell number every 24 hours for 5 days. Differentiation medium contains DMEM/F12 supplemented with 100 IU/ml penicillin, 100 μg/ml streptomycin, 2 mM L-glutamine, 5% heat inactivated horse serum, […], […] and 6.7 ng/ml sodium selenite.
Histochemical Analysis. Heart tissue was fixed in 10% phosphate-buffered formalin and stained with hematoxylin-eosin. […] Coverslips were mounted with Vectashield (Vector Laboratories) and fluorescence or confocal images were captured using Leica DMRXE or Zeiss 3.95 microscopes, respectively. […]

B1: BMP2/4: bone morphogenetic protein (BMP)-2/4 (Genetics Institute) (protein, UniProt P12643 283-396; P12644 293-408, looked up)
Bone morphogenetic protein 2: QAKHKQRKRLKSSCKRHPLYVDFSDVGWNDWIVAPPGYHAFYCHGECPFPLADHLNSTNHAIVQTLVNSVNSKIPKACCVPTELSAISMLYLDENEKVVLKNYQDMVVEGCGCR
Bone morphogenetic protein 4: SPKHHSQRARKKNKNCRRHSLYVDFSDVGWNDWIVAPPGYQAFYCHGDCPFPLADHLNSTNHAIVQTLVNSVNSSIPKACCVPTELSAISMLYLDEYDKVVLKNYQEMVVEGCGCR
In the case of B1, the “induction of sarcomere formation” value is given as “further induction of sarcomere formation in some cells”.
